Protein sequences, listed by entry. Tags and fused reporters are not part of them. Lines headed by an entry give the natural chain unless they say otherwise; changes in a name come on top.
UniProt Q9Y5N1: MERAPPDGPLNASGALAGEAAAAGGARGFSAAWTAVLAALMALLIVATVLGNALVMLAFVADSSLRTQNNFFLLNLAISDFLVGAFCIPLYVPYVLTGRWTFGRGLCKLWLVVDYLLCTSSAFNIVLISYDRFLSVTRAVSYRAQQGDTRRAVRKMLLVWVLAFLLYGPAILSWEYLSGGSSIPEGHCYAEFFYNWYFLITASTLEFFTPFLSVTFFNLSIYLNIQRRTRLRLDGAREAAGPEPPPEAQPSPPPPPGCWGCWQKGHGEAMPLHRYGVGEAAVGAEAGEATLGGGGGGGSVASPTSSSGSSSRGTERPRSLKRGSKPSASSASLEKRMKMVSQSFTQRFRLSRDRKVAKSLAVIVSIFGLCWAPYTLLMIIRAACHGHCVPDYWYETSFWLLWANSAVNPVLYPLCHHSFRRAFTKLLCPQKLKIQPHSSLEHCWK

In paper PMC2430196, “Antagonist affinity measurements at the Gi-coupled human histamine H3 receptor expressed in CHO cells” (BMC Pharmacology, 2008):

Legend:
[1] = target: T1, human histamine H3 receptor (Homo sapiens, UniProt Q9Y5N1); test: cell-based
[2] = target: T1, human histamine H3 receptor; test: CRE-SPAP gene transcription in forskolin-stimulated CHO-H3-SPAP cells; details: pKD values
[3] = target: T1, human histamine H3 receptor; test: 3H-cAMP accumulation in forskolin-stimulated CHO-H3-SPAP cells; assay type: cell-based; parameters: secondarily transfected with the full length human histamine H3 receptor; host or cells: CHO-K1 cells with CRE-SPAP reporter (clonal line CHO-H3-SPAP); details: pKD

NC(=NCc1ccc(Cl)cc1)SCCCc1cnc[nH]1 [clobenpropit]
Kd [1]: 0.437 nM | Kd ([2]; agonist N-α-methylhistamine): 0.38 nM | Kd ([2]; agonist R-α-methylhistamine): 0.617 nM | Kd ([2]; agonist S-α-methylhistamine): 0.562 nM | Kd ([2]; agonist VUF 8430): 0.776 nM | Kd ([2]; agonist histamine): 0.38 nM | Kd ([2]; agonist imetit): 0.631 nM | Kd ([2]; agonist immethridine): 0.617 nM | Kd ([2]; agonist impentamine (first component of the response)): 0.977 nM | Kd ([2]; agonist proxyfan): 0.562 nM | Kd ([3]; agonist N-α-methylhistamine): 0.372 nM | Kd ([3]; agonist R-α-methylhistamine): 0.437 nM | Kd ([3]; agonist S-α-methylhistamine): 0.347 nM | Kd ([3]; agonist VUF 5681): 0.631 nM | Kd ([3]; agonist VUF 8430): 0.38 nM | Kd ([3]; agonist burimamide): 0.562 nM | Kd ([3]; agonist histamine): 0.417 nM | Kd ([3]; agonist imetit): 0.525 nM | Kd ([3]; agonist immepip): 0.457 nM | Kd ([3]; agonist immethridine): 0.479 nM | Kd ([3]; agonist impentamine): 0.347 nM | Kd ([3]; agonist proxyfan): 0.479 nM
